# Where two headings read alike, the source gives them in different places.
# Amino acid sequences for entries named in this document (tags omitted). Residues count along the entry.
# UniProt Q9UNA0, 262-930: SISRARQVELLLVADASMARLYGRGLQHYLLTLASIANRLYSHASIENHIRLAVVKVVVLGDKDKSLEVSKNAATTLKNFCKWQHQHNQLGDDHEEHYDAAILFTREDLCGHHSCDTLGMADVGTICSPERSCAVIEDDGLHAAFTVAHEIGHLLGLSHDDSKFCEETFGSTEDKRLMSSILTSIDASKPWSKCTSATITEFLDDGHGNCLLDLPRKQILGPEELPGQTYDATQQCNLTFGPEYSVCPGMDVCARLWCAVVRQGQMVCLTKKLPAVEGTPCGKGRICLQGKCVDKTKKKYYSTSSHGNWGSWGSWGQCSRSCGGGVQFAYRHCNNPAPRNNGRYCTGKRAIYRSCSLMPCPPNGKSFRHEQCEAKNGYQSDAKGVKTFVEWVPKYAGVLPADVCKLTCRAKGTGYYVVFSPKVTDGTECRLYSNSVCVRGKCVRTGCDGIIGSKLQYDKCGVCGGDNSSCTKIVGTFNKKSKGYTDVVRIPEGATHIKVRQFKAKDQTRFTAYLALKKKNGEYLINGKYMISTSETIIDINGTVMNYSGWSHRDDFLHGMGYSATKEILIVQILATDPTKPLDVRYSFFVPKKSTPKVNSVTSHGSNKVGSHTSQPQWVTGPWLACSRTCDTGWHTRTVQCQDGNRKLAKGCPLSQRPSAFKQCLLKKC
# UniProt P78536, whole entry, looked up, stated change not applied: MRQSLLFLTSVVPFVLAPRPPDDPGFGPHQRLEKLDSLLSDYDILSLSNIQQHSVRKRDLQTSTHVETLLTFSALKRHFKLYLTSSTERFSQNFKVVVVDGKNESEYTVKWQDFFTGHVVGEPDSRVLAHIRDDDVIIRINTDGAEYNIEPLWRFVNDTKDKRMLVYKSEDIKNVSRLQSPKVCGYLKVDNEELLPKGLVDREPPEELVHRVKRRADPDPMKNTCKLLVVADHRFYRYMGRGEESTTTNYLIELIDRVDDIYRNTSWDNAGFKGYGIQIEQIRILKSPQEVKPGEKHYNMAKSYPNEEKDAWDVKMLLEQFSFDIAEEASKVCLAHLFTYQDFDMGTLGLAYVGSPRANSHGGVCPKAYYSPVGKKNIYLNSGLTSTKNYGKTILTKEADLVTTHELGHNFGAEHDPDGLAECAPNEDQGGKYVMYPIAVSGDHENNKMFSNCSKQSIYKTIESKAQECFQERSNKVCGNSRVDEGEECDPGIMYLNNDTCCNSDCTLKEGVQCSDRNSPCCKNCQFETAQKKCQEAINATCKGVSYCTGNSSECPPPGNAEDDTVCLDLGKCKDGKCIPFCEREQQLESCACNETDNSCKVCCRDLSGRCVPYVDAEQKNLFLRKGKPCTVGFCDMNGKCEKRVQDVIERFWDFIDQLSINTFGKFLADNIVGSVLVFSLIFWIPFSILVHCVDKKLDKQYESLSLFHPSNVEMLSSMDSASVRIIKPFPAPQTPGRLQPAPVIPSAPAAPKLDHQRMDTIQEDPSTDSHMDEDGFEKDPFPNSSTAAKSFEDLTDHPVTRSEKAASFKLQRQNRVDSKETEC
# UniProt P03956, 100-469: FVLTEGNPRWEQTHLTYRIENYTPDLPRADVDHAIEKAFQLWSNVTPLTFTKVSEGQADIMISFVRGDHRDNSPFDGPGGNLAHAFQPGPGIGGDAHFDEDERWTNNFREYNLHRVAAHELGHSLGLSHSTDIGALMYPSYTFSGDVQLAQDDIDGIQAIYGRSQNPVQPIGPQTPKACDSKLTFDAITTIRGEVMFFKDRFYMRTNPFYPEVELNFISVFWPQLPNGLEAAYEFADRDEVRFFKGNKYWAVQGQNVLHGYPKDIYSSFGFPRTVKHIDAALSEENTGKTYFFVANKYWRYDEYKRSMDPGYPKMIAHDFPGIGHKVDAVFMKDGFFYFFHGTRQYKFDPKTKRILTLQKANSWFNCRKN
# UniProt P08253, 110-660: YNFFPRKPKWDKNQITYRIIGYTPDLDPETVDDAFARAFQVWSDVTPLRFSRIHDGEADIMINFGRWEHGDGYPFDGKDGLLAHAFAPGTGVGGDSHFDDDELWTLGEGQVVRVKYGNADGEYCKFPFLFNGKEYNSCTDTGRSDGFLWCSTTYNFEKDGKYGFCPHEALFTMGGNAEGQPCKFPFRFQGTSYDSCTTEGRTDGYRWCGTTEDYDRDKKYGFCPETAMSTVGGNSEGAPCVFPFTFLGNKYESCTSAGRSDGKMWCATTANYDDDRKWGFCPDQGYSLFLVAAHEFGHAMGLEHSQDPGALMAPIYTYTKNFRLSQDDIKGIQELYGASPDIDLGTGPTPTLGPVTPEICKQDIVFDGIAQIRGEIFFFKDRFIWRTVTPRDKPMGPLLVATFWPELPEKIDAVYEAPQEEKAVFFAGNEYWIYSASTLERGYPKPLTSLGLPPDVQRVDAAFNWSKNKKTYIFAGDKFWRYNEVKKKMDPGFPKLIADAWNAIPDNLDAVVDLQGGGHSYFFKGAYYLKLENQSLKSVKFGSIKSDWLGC
# Assays:
# [1] = biological target: T1, human ADAMTS-5 (Homo sapiens (Human), UniProt Q9UNA0); details: read-out: hADAMTS-5 potency IC50
# [2] = biological target: human TACE (Homo sapiens (Human), UniProt P78536); details: read-out: TACE potency IC50
# [3] = biological target: human MMP14 (Homo sapiens (Human), UniProt P50281); details: read-out: hMMP-14 potency IC50
# [4] = biological target: human MMP1 (Homo sapiens (Human), UniProt P03956); details: read-out: hMMP-1 potency IC50
# [5] = biological target: T1, human ADAMTS-5; details: read-out: hADAMTS-5 potency IC50; remark: listed apart in the source
# [6] = biological target: human MMP2 (Homo sapiens (Human), UniProt P08253); test: biochemical
# [7] = biological target: human MMP13 (Homo sapiens (Human), UniProt P45452); details: read-out: hMMP-13 potency IC50
smiles,measurement,setting,value
"CCc1cc(N2CCN(C(=O)CCC3(CC(=O)O)NC(=O)NC3=O)C[C@@H]2C)ccc1Cl (stereo partly drawn) [Cpd 471, 2-[4-[3-[(3S)-4-(4-chloro-3-ethyl-phenyl)-3-methyl-piperazin-1-yl]-3-oxo-propyl]-2,5-dioxo-imidazolidin-4-yl]acetic acid]",IC50,[1],0.852 µM
"CCc1cc(N2CCN(C(=O)CCC3(CCC(=O)O)NC(=O)NC3=O)C[C@@H]2C)ccc1Cl (stereo partly drawn) [Cpd 477, 3-[4-[3-[(3S)-4-(4-chloro-3-ethyl-phenyl)-3-methyl-piperazin-1-yl]-3-oxo-propyl]-2,5-dioxo-imidazolidin-4-yl]propanoic acid]",IC50,[1],0.239 µM
same,IC50,[2],> 20 µM
same,IC50,[3],> 20 µM
"Cc1ccccc1N1CCN(C(=O)CC[C@@]2(c3ccccc3)NC(=O)NC2=O)CC1 [compound 27, (5S)-5-[3-[4-(o-tolyl)piperazin-1-yl]-3-oxo-propyl]-5-phenyl-imidazolidine-2,4-dione]",IC50,[4],30 µM
"Cc1ccc(Cl)cc1N1CCN(C(=O)CCC2(C3CC3)NC(=O)NC2=O)CC1 (stereo not shown) [compound 36, 5-[3-[4-(5-chloro-2-methyl-phenyl)piperazin-1-yl]-3-oxo-propyl]-5-cyclopropyl-imidazolidine-2,4-dione]",IC50,[4],30 µM
"CC1(CCC(=O)N2CCN(c3cc(Cl)cc(Cl)c3)CC2)NC(=O)NC1=O (stereo not shown) [compound 40, 5-[3-[4-(3,5-dichlorophenyl)piperazin-1-yl]-3-oxo-propyl]-5-methyl-imidazolidine-2,4-dione]",IC50,[4],> 30 µM
"CN(C)CCC1(CCC(=O)N2CCN(c3cccc(Cl)c3)CC2)NC(=O)NC1=O (stereo not shown) [compound 44, 5-[3-[4-(3-chlorophenyl)piperazin-1-yl]-3-oxo-propyl]-5-(2-dimethylaminoethyl)imidazolidine-2,4-dione]",IC50,[5],0.553 µM
"O=C1NC(=O)C(CCC(=O)N2CCN(c3cc(Cl)cc(Cl)c3)CC2)(C2CC2)N1 (stereo not shown) [compound 55, 5-cyclopropyl-5-[3-[4-(3,5-dichlorophenyl)piperazin-1-yl]-3-oxo-propyl]imidazolidine-2,4-dione]",IC50,[4],> 30 µM
"C[C@H]1CN(C(=O)CCC2(C3CC3)NC(=O)NC2=O)CCN1c1cccc2c1cnn2C (stereo partly drawn) [compound 333, 5-cyclopropyl-5-[3-[(3S)-3-methyl-4-(1-methylindazol-4-yl)piperazin-1-yl]-3-oxo-propyl]imidazolidine-2,4-dione]",IC50,[6],> 20 µM
"C[C@H]1CN(C(=O)CCC2(c3ccc(C(F)(F)F)nc3)NC(=O)NC2=O)CCN1c1cc(F)cc(F)c1 (stereo partly drawn) [compound 335, 5-[3-[(3S)-4-(3,5-difluorophenyl)-3-methyl-piperazin-1-yl]-3-oxo-propyl]-5-[6-(trifluoromethyl)-3-pyridyl]imidazolidine-2,4-dione]",IC50,[6],> 20 µM
"COCC1(CC(C)C(=O)N2CCN(c3cncc(F)c3)[C@@H](C)C2)NC(=O)NC1=O (stereo partly drawn) [compound 364, 5-[3-[(3S)-4-(5-fluoro-3-pyridyl)-3-methyl-piperazin-1-yl]-2-methyl-3-oxo-propyl]-5-(methoxymethyl)imidazolidine-2,4-dione]",IC50,[6],> 20 µM
"COCCOCC1(CC(C)C(=O)N2CCN(c3cc(Cl)cc(Cl)c3)[C@@H](C)C2)NC(=O)NC1=O (stereo partly drawn) [compound 426, 5-(3-((S)-4-(3,5-dichlorophenyl)-3-methylpiperazin-1-yl)-2-methyl-3-oxopropyl)-5-((2-methoxyethoxy)methyl)imidazolidine-2,4-dione]",IC50,[7],> 4 µM
"C[C@H]1CN(C(=O)CCC2(c3ccccn3)NC(=O)NC2=O)CCN1c1ccc(F)c(Cl)c1 (stereo partly drawn) [compound 457, 5-[3-[(3S)-4-(3-chloro-4-fluoro-phenyl)-3-methyl-piperazin-1-yl]-3-oxo-propyl]-5-(2-pyridyl)imidazolidine-2,4-dione]",IC50,[2],> 4 µM
"CC(C)c1cc(N2CCN(C(=O)CC[C@@]3(C)NC(=O)NC3=O)C[C@@H]2C)ccc1Cl [compound 468, (5R)-5-[3-[(3S)-4-(4-chloro-3-isopropyl-phenyl)-3-methyl-piperazin-1-yl]-3-oxo-propyl]-5-methyl-imidazolidine-2,4-dione]",IC50,[1],> 4 µM
same,IC50,[2],> 4 µM
same,IC50,[3],> 20 µM
"CCc1cc(N2CCN(C(=O)CCC3(CCC(=O)OC(C)(C)C)NC(=O)NC3=O)C[C@@H]2C)ccc1Cl (stereo partly drawn) [compound 475, tert-butyl 3-[4-[3-[(3S)-4-(4-chloro-3-ethyl-phenyl)-3-methyl-piperazin-1-yl]-3-oxo-propyl]-2,5-dioxo-imidazolidin-4-yl]propanoate]",IC50,[1],0.307 µM
same,IC50,[2],2.65 µM
same,IC50,[3],> 4 µM
"CCc1cc(N2CCN(C(=O)C(C)CC3(COC)NC(=O)NC3=O)C[C@@H]2C)ccc1Cl (stereo partly drawn) [compound 481, 5-[3-[(3S)-4-(4-chloro-3-ethyl-phenyl)-3-methyl-piperazin-1-yl]-2-methyl-3-oxo-propyl]-5-(methoxymethyl)imidazolidine-2,4-dione]",IC50,[1],0.029 µM
same,IC50,[2],3.95 µM

# — patent US9926281B2 (priority 2014, dated 2018)
